Measurements reported in patent publication US20120034163A1, “NON-INVASIVE TOOLS FOR DETECTING VULNERABLE ATHEROSCLEROTIC PLAQUES” (UNIVERSITE JOSEPH FOURIER, priority 2009, published 2012).

Assay: Organ biodistribution of 99mTc-labelled tracers by gamma-well counting of excised organs
Conditions: 180 min following tracer injection; for Organ distribution, Aorta / Organ distribution, Blood / Organ distribution, Fat / Organ distribution, Kidney / Organ distribution, Liver / Organ distribution, Lung / Organ distribution, Skeletal muscle / Organ distribution, Spleen / Organ distribution, Heart: 99mTc-labelled tracer; for Organ distribution, Heart: lateral tail vein; for Organ distribution, Carotid artery, Right: contralateral control carotid; for Organ distribution, Carotid artery, Left: ligated left carotid (atherosclerotic lesion)

Sequence | Organ distribution, Aorta | Organ distribution, Blood | Organ distribution, Fat | Organ distribution, Kidney | Organ distribution, Liver | Organ distribution, Lung | Organ distribution, Skeletal muscle | Organ distribution, Spleen | Organ distribution, Heart | Organ distribution, Carotid artery, Right | Organ distribution, Carotid artery, Left
HGRENLRIAARY [EP38] | 0.7 ± 0.1 | 1.2 ± 0.3 | 0.2 ± 0.1 | 20.6 ± 10.8 | 6.9 ± 1.6 | 0.9 ± 0.1 | 0.2 ± 0.1 | 0.8 ± 0.2 | 0.3 ± 0.1 | 0.2 ± 0.1 | 0.4 ± 0.1
HGRENLRILARA [EP36] | 0.7 ± 0.2 | 1.3 ± 0.3 | 0.3 ± 0.1 | 33.1 ± 0.7 | 4.2 ± 0.6 | 0.9 ± 0.2 | 0.2 ± 0.1 | 0.8 ± 0.2 | 0.4 ± 0.1 | 0.4 ± 0.1 | 0.5 ± 0.1
HGRENLRILARY [EP35] | 0.3 ± 0.0 | 0.4 ± 0.0 | 0.1 ± 0.0 | 23.6 ± 3.7 | 2.8 ± 0.5 | 0.4 ± 0.1 | 0.1 ± 0.0 | 0.4 ± 0.1 | 0.5 ± 0.3 | 0.4 ± 0.2 | 0.1 ± 0.0
